## Binding of CDR-mutated scFvs to a peptide of the spike HR2 region

Antigen: PDVDLGDISGINAS, a 14-residue peptide of the SARS-CoV-2 spike HR2 region.

Parent: Ab-14, a human scFv built as VH, the linker GGGGSGGGGSGGGGS, VL. Only the CDRs of the heavy chain vary.
VH: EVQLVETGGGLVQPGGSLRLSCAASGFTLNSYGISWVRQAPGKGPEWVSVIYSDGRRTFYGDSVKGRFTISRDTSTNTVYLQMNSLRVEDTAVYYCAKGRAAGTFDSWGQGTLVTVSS
VL: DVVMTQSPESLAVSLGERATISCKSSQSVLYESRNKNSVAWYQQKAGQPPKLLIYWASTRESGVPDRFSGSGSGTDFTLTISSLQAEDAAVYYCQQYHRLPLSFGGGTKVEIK

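Designed CDR sequences, proposed from the first random library and measured here. Several design methods are mixed in this list. Affinity was read by AlphaSeq, a pooled yeast mating assay with surface-displayed partners. After mating in shaken culture at 30 °C for 16 h, diploids were selected and their barcode pairs sequenced. Scores were corrected for input abundance and mapped to Kd with protein pairs of known affinity run in the same pool. The assay was run in six technical replicates.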

Each variant is given by its three heavy chain CDRs, as the data file delimits them; those of the parent are GFTLNSYGIS, VIYSDGRRTFYGDSVK, GRAAGTFDS. Scale: log10 of Kd in nM, estimated from mating counts; low values are strong binders. Replicates are averaged; those with no signal do not enter the mean. A pair that was not seen in any replicate is written "not detected"; this usually means weak binding, but a binder can also be missed. In the paper, a design with two or fewer of six values counts as a poor binder. The parent sequence was in this pool as ten entries: three were never detected, three once, and four in most replicates, with averages from 0.34 to 2.37. The range of this assay differs from that of the first round, and the authors advise against merging the two. Empty control strains, which show no peptide, gave a signal in 1% of pairings with all heavy chain designs; the median was 2.08 and 95% of these signals were weaker than 0.84. No background was subtracted.

mean log10 Kd (nM),replicates with signal,CDR-H1,CDR-H2,CDR-H3
1.62,1 of 6,GFTLNSYGIS,VIYSDGRRTFYMDSVK,GQLAGTFDR
1.73,4 of 6,GFTLNSYGIS,VIYSDGLRTFYQDSVK,GRAAGTFDS
-0.59,6 of 6,GFSLNSYGIS,VIYADGRRTFYGDSVK,GRMAGTFDS
0.39,6 of 6,GFDLNEYGIS,VIYADGLRTFYTDSVK,GEFAGTFDA
-0.14,6 of 6,GFDLDEYGIS,VIYADGQRTAYADNVK,GNVAGTFDV
0.48,6 of 6,GFTLNEYGIS,VIYSDGRRTFYEDDVK,GRQAGTFDS
0.19,6 of 6,GFQLNEYGIS,VIYSDGRRTFYGDSVK,GRNAGTFDT
1.87,5 of 6,GFNLNSYGIS,VIYSDGRRTFYGDSVK,GCQAGTFDS
-0.22,6 of 6,GFDLDEYGIS,VIYADGKRTVYADSVK,GEVAGTFDV
not detected,0 of 6,GFTLNSYGIS,VIYSDGRRTFYGDSVK,GRAQGTFDS
not detected,0 of 6,GFTINSHGIS,VIYSDGRRTFYIDSVK,GRAAGTFDL
not detected,0 of 6,GLTLNSYGIS,VIYSDGRRTFYGDSVK,GLAAGTFDS
-0.31,6 of 6,GFDLNEYGIS,VIYADGMRTAYVDDVK,GENAGTFDM
-0.13,6 of 6,GFWLNEYGIS,VIYSDGRRTFYHDSVK,GRAAGTFDL
1.91,1 of 6,GFTLNSYGIS,VIYSDGRRTFYGDSYK,GRAADTFDS
not detected,0 of 6,GFDLNEYGIS,VIYSDGRRTFYGDSVK,GRAACTFDQ
0.21,6 of 6,GFTLNSYGIS,VIYSDGKRTFYSDSVK,GKVAGTFDS
1.66,1 of 6,GFTLNSYGIS,VIYSDGRRTFYIDSVK,GRQAGTFDS
not detected,0 of 6,GFNLDEYGIS,VIYADGKRTEYSKNVK,GYIDFKLIG
not detected,0 of 6,GFNLDEYGIS,VIYADGMRTAYTDSVK,GEVAGTFDV
not detected,0 of 6,GFTLNEYGIS,VIYSDGRRTFYGDSVK,GPAAGTFDL
-0.68,6 of 6,GFDLNEYGIS,VIYADGRRSYYADSVK,GQLAGTFDV
0.13,6 of 6,GFTLNSYGIS,VIYSDGKRTFYSDSVK,GQTAGTFDS
-0.60,6 of 6,GFDLNEYGIS,VIYADGRRTFYADSVK,GKIAGTFDV
-0.76,6 of 6,GFGLGEYGIS,VIYADGRRTFYSDDVK,GNMIVAGVD
-0.48,6 of 6,GFDLNEYGIS,VIYADGQRTAYADSVK,GNQAGTFDI
-0.57,6 of 6,GFDLDEYGIS,VIYADGRRTYYADSVK,GTNAGTFDV
not detected,0 of 6,GVTLNSYGIS,VIYSDGRRTFYGNSVK,GRAAVTFDD
1.72,5 of 6,GFTLDSYGIS,VIYSDGRRTFYGDSVK,GRAAGTFDS
not detected,0 of 6,GFNLDEYGIS,VIYADGSRVAYRNTVK,GALGIGYSV
-0.30,6 of 6,GFELNSYGIS,VIYADGRRTFYQDSVK,GKAAGTFDS
-0.01,6 of 6,GFDLNEYGIS,VIYADGMRTYYADSVK,GQNAGTFDQ
-0.14,6 of 6,GFSLNEYGIS,VIYSDGRRTFYADSVK,GSAAGTFDS
-0.40,6 of 6,GFDLNEYGIS,VIYADGMRTAYSDSVK,GENAGTFDQ
-0.42,6 of 6,GFDLNEYGIS,VIYADGVRTFYADSVK,GNVAGTFDL
1.78,6 of 6,GFTLNSYGIS,VIYSDGRRTFYGDSVK,GHAAGTFDS
2.92,1 of 6,GKDIESYGVS,VIYADGKRTAYANNFK,GSNAGSFVM
1.48,6 of 6,GFTLDSYGIS,VIYSDGRRTFYDNSVK,GRAAGTFDS
0.56,6 of 6,GFDLEDYGIS,VIYADGRRTQYADSVK,GEQAGTFDL
not detected,0 of 6,GKSIEEYGIS,VIYADGQRNAYAETVK,GMNGGVFSY
1.50,6 of 6,GFQLNSYGIS,VIYSDGRRTFYGDSVK,GNAAGTFDS
0.88,6 of 6,GFGLNSYGIS,VIYSDGRRTAYGDSVK,GRQAGTFDS
-0.04,6 of 6,GFQLNEYGIS,VIYSDGRRTFYGDSVK,GRTAGTFDW
not detected,0 of 6,GETLNSYGIS,VIYSDGRRTAYGDRVR,GRAAVTFDS
not detected,0 of 6,GFTLNSYGIS,VIASDGRRTFYGDSVK,GRAAGTFDS
-1.17,6 of 6,GFHLNDYGIS,VIYSDGRRTFYADSVK,GRAAGTFDS
not detected,0 of 6,GFTLNSYGIS,VIYSDKRRTFYGDSVK,GRAAGTFDS
1.60,5 of 6,GFELNSYGIS,VIYSDGRRTFYGDHVK,GRTAGTFDS
-0.76,6 of 6,GFDLNEYGIS,VIYADGMRTAYLDSVK,GNVAGTFDV
0.24,5 of 6,GFDLNEYGIS,VIYSDGRRTFYGDSVK,GRAAGTFDK
-0.11,6 of 6,GFTLNEYGIS,VIYSDGRRTFYADSVK,GRAAGTFDK
0.26,6 of 6,GFSLNNYGIS,VIYSDGRRTFYGDDVK,GRTAGTFDS
0.08,6 of 6,GFDLDEYGIS,VIYADGRRTAYADSVK,GNNAGTFDV
not detected,0 of 6,GFDIEDYGIS,VIYADGMRSSYSNSFK,GLQSGNIMV
-0.28,6 of 6,GFDLNEYGIS,VIYADGMRTFYTDSVK,GANAGTFDS
-0.62,6 of 6,GFDLNEYGIS,VIYADGMRTAYADSVK,GSVAGTFDL
not detected,0 of 6,GFTLNSYGIS,VIYSDGYRTFYGDSVK,GRAAVTFDQ
0.47,4 of 6,GFDLNEYGIS,VIYADGRRTAYSDSVK,GEAAGTFDL
0.71,6 of 6,GFDLDEYGIS,VIYADGRRTAYADSVK,GETAGTFDQ
0.10,6 of 6,GFDLDEYGIS,VIYADGQRTAYSDDVK,GENAGTFDV
-0.63,6 of 6,GFDLDEYGIS,VIYADGQRTAYADSVK,GNQAGTFDL
-0.53,6 of 6,GFDLNEYGIS,VIYADGMRTAYADDVK,GNVAGTFDA

A selection of 8 entries from above:

CDR-H1,CDR-H2,CDR-H3,mean log10 Kd (nM),replicates with signal
GFDLNEYGIS,VIYADGMRTAYADDVK,GNVAGTFDA,-0.53,6 of 6
GFQLNEYGIS,VIYSDGRRTFYGDSVK,GRNAGTFDT,0.19,6 of 6
GFTINSHGIS,VIYSDGRRTFYIDSVK,GRAAGTFDL,not detected,0 of 6
GFQLNSYGIS,VIYSDGRRTFYGDSVK,GNAAGTFDS,1.50,6 of 6
GFDLDEYGIS,VIYADGQRTAYSDDVK,GENAGTFDV,0.10,6 of 6
GFSLNSYGIS,VIYADGRRTFYGDSVK,GRMAGTFDS,-0.59,6 of 6
GFTLNSYGIS,VIYSDGLRTFYQDSVK,GRAAGTFDS,1.73,4 of 6
GFTLNSYGIS,VIYSDGKRTFYSDSVK,GQTAGTFDS,0.13,6 of 6

Source: Li et al. 2023 (doi:10.1038/s41467-023-39022-2), MIT Lincoln Laboratory and A-Alpha Bio; data file from the FLAb repository.